## Binding of CDR-mutated scFvs to a peptide of the spike HR2 region

The measurements come from Li et al. 2023 (doi:10.1038/s41467-023-39022-2) through the FLAb antibody collection.

Antigen: PDVDLGDISGINAS, a 14-residue peptide of the SARS-CoV-2 spike HR2 region.

Parent scFv Ab-14: VH joined to VL by a 15-residue (Gly4Ser)3 linker. Changes lie in the heavy chain CDRs alone.
VH: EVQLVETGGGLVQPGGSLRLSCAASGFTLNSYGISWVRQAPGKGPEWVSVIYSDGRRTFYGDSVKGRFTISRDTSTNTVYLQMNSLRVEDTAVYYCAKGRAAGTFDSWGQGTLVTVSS
VL: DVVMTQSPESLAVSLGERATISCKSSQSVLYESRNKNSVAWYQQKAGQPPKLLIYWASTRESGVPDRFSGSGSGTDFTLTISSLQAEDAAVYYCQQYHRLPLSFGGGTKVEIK

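The parent was found by panning a naive human phage display library on the peptide. These sequences belong to a second round, designed from the earlier measurements on random variants of the parent. Several design methods are mixed in this list. AlphaSeq pools MATa yeast showing the antibodies with MATalpha yeast showing the peptide. The frequency of each diploid, read from paired DNA barcodes, reflects how well the two displayed proteins bind. The ratio of observed to expected reads was calibrated, replicate by replicate, on BCL2-family standards whose Kd was known from biolayer interferometry. Each pool was mated in six replicate cultures.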

Positions count from residue 1 of the parent VH; T28Q puts Q in place of T. Variants here have at most six changes. The Kd shown is the geometric mean over detected replicates; a lower Kd is a better binder. Where no diploid with the target was found in any replicate, the entry reads "no signal": below detection, most likely a poor binder, though not proof of it. The authors' rule: three or more of the six replicates give a measured affinity, fewer mean a poor binder. Where one sequence has several entries in the source, the replicates are pooled. As a blank, each scFv also met three strains without target: over all heavy chain designs, 1% of these pairings were detected, typically at 120 nM and seldom below 7.0 nM. Of ten entries with the parent sequence, four were seen in most replicates (averages 2.2 nM to 240 nM), three in one and three in none, so single entries are noisy. The range of this assay differs from that of the first round, and the authors advise against merging the two.

Variant T28Q/S63N/A101T/S107T showed 10 nM (6 of 6 replicates). Variant S31E/G61D/A101W/G103S showed 2.1 µM (5 of 6 replicates). With R56K/G61I/R100Q the result was 33 nM (3 of 6 replicates). Variant G61S/S63A/R100K showed 7.4 nM (6 of 6 replicates). Variant T28S/S31N/A101T/S107K gave 2.9 nM (6 of 6 replicates). Variant G26K/T28S/G61A/R100Q/A101T gave no signal (0 of 6 replicates). Variant G26K/T28D/S31E/G61V/A101C showed 11 nM (1 of 6 replicates).

Variant T28H/S31D/G61I/A101M showed 62 nM (6 of 6 replicates). Variant G26D/G61D/R100Q/A101T showed 36 nM (6 of 6 replicates). For A101N/D106H, the assay gave no signal (0 of 6 replicates). Variant S53R/G61D/R100Q/A101L/G103K gave no signal (0 of 6 replicates). With T28Q/R100D the result was 14 nM (6 of 6 replicates). With T28S/S31E/G61D/S63D/R100K the result was 750 pM (6 of 6 replicates). Variant S63K/F105M showed no signal (0 of 6 replicates).

For T28D/A101I/S107A, the assay gave 2.2 nM (6 of 6 replicates). Variant T28Q/S31E/R100E/S107K showed 44 nM (6 of 6 replicates). For G26H/T28N/S31E/G103L/D106C, the assay gave no signal (0 of 6 replicates). Variant G61S/R100M/A101Q gave 2.6 nM (6 of 6 replicates). Variant T28W/S31E/G61D/A101T gave 2.9 nM (6 of 6 replicates). Variant T28L/S31D/F59Q/G61I gave 10 nM (6 of 6 replicates). For R57K/A101T, the assay gave 10 nM (1 of 6 replicates).

With S31A/G61S/R100T the result was 1.6 nM (6 of 6 replicates). With T28P/I34Y/A102E/S107D the result was no signal (0 of 6 replicates). With N30D/S107K the result was 2.3 nM (1 of 6 replicates). Variant N30M/G61A gave 24 nM (6 of 6 replicates). Variant G26K/T28S/R57H gave 2.6 µM (1 of 6 replicates). Variant S35I/S53A showed no signal (0 of 6 replicates). Variant T28N/D106R showed no signal (0 of 6 replicates).

Variant T28Q/S31E/R100Q/S107T showed 5.5 nM (6 of 6 replicates). With T28D/G61C the result was no signal (0 of 6 replicates). Variant S31E/G61M/S63D/A101F gave 15 nM (6 of 6 replicates). Variant T104M/D106F showed no signal (0 of 6 replicates). With G55Y the result was no signal (0 of 6 replicates). Variant S31E/R56K/S107E showed 16 nM (6 of 6 replicates). Variant T28E/S31E/S53A/D106I showed no signal (0 of 6 replicates).

Variant S31E/R56I/S107T gave 2.0 nM (6 of 6 replicates). For G61T/R100Q, the assay gave 56 nM (6 of 12 replicates). Variant T28K/S31E/A101T/S107T showed 510 pM (6 of 6 replicates). For S31D/G61S/R100K, the assay gave 2.2 nM (6 of 6 replicates). Variant N30Q/R56F gave 93 nM (2 of 6 replicates). With T28S/S31D/R56K the result was 660 pM (6 of 6 replicates). For S31E/G61R/A101T, the assay gave 1.3 nM (6 of 6 replicates).

Variant T28S/S63K/R100E gave 2.7 nM (6 of 6 replicates).

From the list, the first 4 with no signal in any replicate:

changes,Kd (apparent),replicates with signal
G26K/T28S/G61A/R100Q/A101T,no signal,0/6
A101N/D106H,no signal,0/6
S53R/G61D/R100Q/A101L/G103K,no signal,0/6
S63K/F105M,no signal,0/6